Laboratory results from PubChem BioAssay AID678 (Vanderbilt High Throughput Screening Facility, 2007).
What follows is the remainder of the data, with few or none of the hits. The source made the active and inactive calls.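 The calls were made as follows: active = fluorescence response below the plate's average for near-maximal glutamate wells, less 3 SD of those wells; inactive = the rest.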

Molecular target: Metabotropic glutamate receptor 4 (Homo sapiens) (UniProt Q14833)
Assay: mGluR4 calcium signal in M1 antagonist follow-up – cell-based, antagonist mode, secondary assay 1, M1 allosteric modulator project (AID 678);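 also: raw unnormalized fluorescence span taken in the window right after glutamate addition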
Settings: CHO-mGluR4 calcium flux, Fluo-4 fluorescence, glutamate EC80; at 10 µM; hits give low values

Fluorescence response (max-min), inactive:
Cc1ccccc1C(OCCN(C)C)c1ccccc1 (configuration not stated) 241
CN1CCC(=C2c3ccccc3CC(=O)c3sccc32)CC1 174
COc1ccc(CCN2CCC(Nc3nc4ccccc4n3Cc3ccc(F)cc3)CC2)cc1 248
COc1cc2nc(N3CCN(C(=O)C4CCCO4)CC3)nc(N)c2cc1OC (configuration not stated) 261
CN(C)CCCN1c2ccccc2CCc2ccc(Cl)cc21 241
CCOC(=O)N1CCC(=C2c3ccc(Cl)cc3CCc3cccnc32)CC1 273
CNCCCC12CCC(c3ccccc31)c1ccccc12 255
